Literature values in patent publication USRE32935E, “Non-toxic organotin stabilizers for vinyl chloride polymers” (M&T Chemicals, Inc., priority 1985, dated 1989).

Tested on: rats
Conditions: force-feeding, table of Neumann; cited from earlier work

Substance: tri-n-octyltin laurate
- LD50 (lethal dose for 1/2 the population): greater than 6,000 mg per kilogram of body weight
